Reference: article PMC11472058, “Trinucleotide cap analogs with triphosphate chain modifications: synthesis, properties, and evaluation as mRNA capping reagents” (Nucleic Acids Research, 2024)

Molecular target: Human Dcp2 (Homo sapiens, UniProt Q8IU60)
Test: RNA decapping assay with recombinant hDcp2
Conditions: fraction of decapped RNA after 30 min of incubation with hDcp2, 27-nt RNA capped with the analog, 37 °C; triplicates ± SD
Method: Human Dcp2 was expressed in E. coli and purified as described previously ([52]). Short 27 nt-capped RNAs (24.2 ng) were diluted with decapping buffer (50 mM Tris–HCl pH 8.0, 50 mM NH4Cl, 0.01% NP-40, 1 mM DTT, 5 mM MgCl2 and 2 mM MnCl2; 2.9 μl of freshly prepared 10 × Buffer) and the final volume was adjusted to 29 μl with ultrapure RNase free water. 4.2 ng (5 μl) of the solution was taken out as time zero reference and diluted with 5 μl loading dye (5 M urea, 44% formamide, 20 mM EDTA, 0.03% bromophenol blue, 0.03% xylene cyanol). The remaining RNAs (20 ng/24 μl) were subjected to 10 nM hDcp2 (250 nM, 1 μl) and the mixtures were incubated at 37°C for 1 h. […] The decapping progress was determined for each time point by densitometry analysis of the gels, as a ratio between the intensity of the band corresponding to capped RNA and the sum of the intensity of bands from capped and uncapped RNAs. […]
The RNAs used to determine the capping efficiencies were also useful to study the susceptibility of capped RNA to decapping by hDcp2, the catalytic subunit of the major human mRNA decapping complex Dcp1/Dcp2, which releases m^7GDP and 5′-monophosphorylated RNA (in this case the 26-nt pApG-RNA24; Figure 4C). […] To quantify the relative susceptibility to hDcp2, we compared the decapping levels at the 30 min time point (Table 1). […]

SMILES | Susceptibility to hDcp2 (@30 min)
CNc1ncnc2c1ncn2[C@@H]1O[C@H](COP(=O)(O)OP(=O)([O-])OP(=O)(O)OC[C@H]2O[C@@H](n3c[n+](C)c4c(O)nc(N)nc43)[C@H](O)[C@@H]2O)[C@@H](OP(=O)(O)OC[C@H]2O[C@@H](n3cnc4c(=O)[nH]c(N)nc43)[C@H](O)[C@@H]2O)[C@H]1OC | 0.67 ± 0.02
C[n+]1cn([C@@H]2O[C@H](COP(=O)(O)OP(=O)([O-])OP(=O)(O)OC[C@H]3O[C@@H](n4cnc5c(N)ncnc54)[C@H](O)[C@@H]3OP(=O)(O)OC[C@H]3O[C@@H](n4cnc5c(=O)[nH]c(N)nc54)[C@H](O)[C@@H]3O)[C@@H](O)[C@H]2O)c2nc(N)nc(O)c21 | 0.90 ± 0.04
